# From PMC12723675, “Evaluating BindCraft for Generative Design of High-Affinity Peptides” (ACS Chemical Biology, 2025)
# Target: stapled Myc_B1 peptide
# Assay: BLI; full binding curves: biotinylated peptide on streptavidin biosensors, WDR5 in solution (10, 2, 0.4, 0.08 μM for Myc-site peptides; 2.5, 0.5, 0.1, 0.2 μM as printed for stapled Myc_B1); KD the average from four concentrations, 1:1 kinetic model; kinetic buffer, RT
substance,measurement,value
truncated WDR5 (amino acids 22–334) (from UniProt P61964 22-334) (domain or fragment),Kd,39 nM
same,fold improvement of KD over the unstapled parent peptide,6 fold
